The results in this text go back to patent publication US7071185B2, “1,2,3,4,7,8-hexahydro-6H-[1,4]diazepino[6,7,1-ij]quinoline derivatives as antipsychotic and antiobesity agents” (Wyeth, priority 2002, dated 2006).

Sequences of proteins named here, by UniProt entry; tags and fusion partners are left off. Residues count along the entry.
UniProt P28335, 33-458: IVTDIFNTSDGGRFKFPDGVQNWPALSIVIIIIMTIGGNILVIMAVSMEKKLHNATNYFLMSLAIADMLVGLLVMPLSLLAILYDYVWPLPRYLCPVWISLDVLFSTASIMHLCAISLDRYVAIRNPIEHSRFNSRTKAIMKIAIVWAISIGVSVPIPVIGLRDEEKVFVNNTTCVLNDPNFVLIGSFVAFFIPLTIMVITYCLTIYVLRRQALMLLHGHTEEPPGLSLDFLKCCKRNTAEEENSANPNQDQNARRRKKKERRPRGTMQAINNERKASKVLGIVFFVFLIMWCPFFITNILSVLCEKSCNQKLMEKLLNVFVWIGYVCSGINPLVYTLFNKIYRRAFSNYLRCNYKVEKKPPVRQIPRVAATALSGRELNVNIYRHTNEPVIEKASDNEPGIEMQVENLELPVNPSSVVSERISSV

For orientation: EC50 means the concentration needed to bring the measured effect to its halfway point. Usually Ki stands for the dissociation constant of the complex between target and ligand, obtained from inhibition or displacement.

The structures appear in SMILES notation.

One assay deals with T1, human 5-HT2C receptor (Homo sapiens, UniProt P28335).
T1 construct: expressed in transfected cells
Put plainly: Calcium mobilization in response to 5-HT2C receptor agonists (FLIPR). The following applies: CHO cells stably expressing human 5-HT2C receptor, Fluo-3 calcium; read-out: EC50, reference compounds. It counts as cell-based. (In general: Calcium flux is commonly read through the fluorescence of an indicator in the cells.)

The target of assay [1] is T2, human 5-hydroxytryptamine2C (h5HT2C) receptor (Homo sapiens, UniProt P28335).
T2 construct: expressed in transfected cells; host or cells: CHO (Chinese Hamster Ovary) cells; membrane preparation
Description: 5HT2C receptor binding ([125I]DOI displacement, CHO cell membranes). The following applies: [125I]DOI binding, CHO membranes expressing h5HT2C; read-out: Ki (95% confidence interval), reference compounds.

With `Clc1cccc(N2CCNCC2)c1` [mCPP, meta-chlorophenylpiperazine, reference compound], the 50% effective concentration (EC50) on human 5-HT2C receptor was 5.4 nM. Moreover, the Ki in assay [1] was 6.5 nM.
